## scFv variants of Ab-14 (light chain) against a SARS-CoV-2 spike peptide

Binding partner: SARS-CoV-2 spike HR2 peptide, sequence PDVDLGDISGINAS.

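Phage display of a naive human antibody library on the peptide gave the parent. This is the validation round: designs drawn from the data on random variants, tested in the same kind of assay. Group labels follow the data file (Ctrl: baseline library sampled from a position-specific scoring matrix, with some repeated check sequences; Rand: our label for a block that the file lists under HC and that is probably the random mutants of the ten best first-round binders; En: ensemble of fine-tuned language models; GP: Gaussian process model; HC: hill climbing; Gen: genetic algorithm; Gibbs: Gibbs sampling; a sequence that several methods proposed may carry one label only). The scFvs were displayed on barcoded MATa yeast, the peptide on MATalpha yeast. Pairs that bind mate more often; barcode pairs of the diploids are counted by sequencing. A regression on co-assayed BCL2-family reference pairs converts the normalised counts of each replicate to an apparent Kd. The assay was run in six technical replicates.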

The variants keep the heavy chain, the linker and the frameworks of Ab-14 (scFv order VH, a (GGGGS)3 linker, VL).
VH: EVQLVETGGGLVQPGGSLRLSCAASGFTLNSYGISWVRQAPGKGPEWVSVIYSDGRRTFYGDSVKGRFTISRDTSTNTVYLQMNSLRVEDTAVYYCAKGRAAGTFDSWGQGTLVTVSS
VL: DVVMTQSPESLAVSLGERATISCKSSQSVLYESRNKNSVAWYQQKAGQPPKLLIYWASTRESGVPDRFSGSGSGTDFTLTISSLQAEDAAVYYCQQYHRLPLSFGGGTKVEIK

Variants are written as CDR1, CDR2 and CDR3 of the light chain (limits as in the source). Parent: KSSQSVLYESRNKNSVA, WASTRES, QQYHRLPLS.
Affinities are written as log10 Kd with Kd in nM; a lower number is a better binder.
A pair that was not seen in that replicate is written "nd"; this usually means weak binding, but a binder can also be missed.
Nonspecific signal, from three strains lacking the peptide, appeared in 4% of pairings of all light chain designs, centred on 2.64 (5% of these signals below 1.59); values are not corrected for it.

| # | CDR-L1 | CDR-L2 | CDR-L3 | group | log10 Kd (nM) by replicate |
|---|---|---|---|---|---|
| 1 | KSSQSVLYEQRNKNSVS | WASTRES | QQYHRLPLS | Ctrl | nd / nd / nd / nd / nd / 1.56 |
| 2 | HLTQSVDLESVHKNSIA | DLMTRES | QQYHRLPLS | En_HC | 0.26 / -0.04 / 0.04 / -0.11 / -0.08 / 0.29 |
| 3 | KLQAQDEYWSRNKNSVA | QASTREQ | QQYHRLPLS | GP_Gibbs | -0.48 / -0.46 / -0.53 / -0.67 / -0.57 / -0.51 |
| 4 | KSSQSFLYESRMKNSVA | GASQRES | QQYHRLPLS | GP_HC | -0.12 / -0.36 / -0.42 / -0.45 / -0.31 / -0.17 |
| 5 | KVSQSWLQESRNKNSVA | EASTRQS | QQYHRLPLS | GP_HC | -0.10 / -0.30 / -0.40 / -0.43 / -0.45 / -0.35 |
| 6 | KISQAYLYESRNKNSVA | QANYRES | QQYHRLPLS | GP_Gibbs | -0.06 / -0.13 / -0.16 / -0.31 / -0.05 / -0.08 |
| 7 | KLSQSWWYESRNKNSVA | NASTRES | QQYHRLPLS | GP_Gen | 0.81 / 0.52 / 0.31 / 0.36 / 0.40 / 0.68 |
| 8 | KLSQSFLYESRWKNSVA | GASQRES | QQYHRLPLS | GP_HC | 0.56 / 0.48 / 0.45 / 0.47 / 0.41 / 0.47 |
| 9 | TLYGLSNSMSIKKDSVA | EMTTREE | QQYDRLPLV | En_Gen | 0.67 / 0.47 / 1.01 / 0.32 / 0.42 / 0.53 |
| 10 | TIGQVMNYESRNRNSVA | QTSTREE | QDYDRLPLS | En_HC | nd / nd / 2.59 / 1.97 / 3.12 / nd |
| 11 | KFSQSFLYWSRNSNAVA | EASTRES | QDYHRLPLS | GP_Gibbs | 1.26 / 0.27 / 0.71 / 0.25 / 0.66 / 0.51 |
| 12 | IISELYNQATGMRNNVA | NNATRED | QQYDRLPLS | En_Gen | nd / nd / nd / nd / nd / nd |
| 13 | RISAHVYDETNTQENVA | QEHIRAN | QSYSRLPLS | En_Gibbs | 2.59 / 2.96 / 2.33 / 2.75 / 1.87 / 2.38 |
| 14 | KYSQGVLYESRNKNSVA | QASTRES | QQYNMLPLS | Ctrl | 0.74 / 0.76 / 0.64 / 0.52 / 0.65 / 0.87 |
| 15 | ILSQSVLMGSHLKNSVA | QASTRFE | QQYHRLPLM | En_HC | 0.26 / 0.36 / 0.70 / 0.71 / 0.65 / 0.50 |
| 16 | KFGQGVLYESRNKNSRA | GASTRES | QQYHRLPLS | Rand | nd / nd / nd / nd / nd / nd |
| 17 | KGQQSQQYESRNWNSVA | NASYRES | QQYHRLPLS | GP_Gibbs | 2.08 / 3.26 / 2.47 / nd / 1.81 / 1.02 |
| 18 | KLSQLFYKESKKKNNVA | EMTTRGS | QQYDRLPLS | En_HC | 1.28 / 0.75 / 1.10 / 1.10 / 0.69 / 1.61 |
| 19 | RMNKFMSGATEAKNSMA | GQEHRAR | QSYHRLPLS | En_Gibbs | 0.60 / 1.39 / 1.21 / 2.33 / 1.09 / 1.31 |
| 20 | KISFLTNQTFEQSNNVA | EMVTRER | QQYNRLPLS | En_Gen | 0.72 / 1.17 / 1.06 / 0.73 / 0.58 / 0.72 |
| 21 | KISSLTMYESVQKNNIA | EMSTRPS | QSYHRLPLS | En_HC | 0.91 / 1.22 / 1.07 / 0.65 / 1.15 / 0.91 |
| 22 | KLSQSFLYESRNKNNVA | GASTRES | QQYHRLPLS | GP_Gen | 0.03 / -0.29 / -0.26 / -0.32 / -0.18 / -0.11 |
| 23 | MLSDLVKMGSRETNSVA | DNSTRGS | QQYDRLPLS | En_HC | 1.00 / 1.77 / 1.47 / 1.32 / 1.59 / 0.96 |
| 24 | KLSLIMRLESKNKSNIA | EVNERSE | QQYDRLPLS | En_Gen | 0.83 / 0.68 / 0.41 / 0.61 / 0.69 / 0.96 |
| 25 | KIMQSLNYEQFNVSNVA | GQETREN | QSYHRLPLS | En_HC | 1.36 / 1.57 / 1.95 / 2.00 / 1.52 / 2.54 |
| 26 | KLSQSDLYEDRNKNSVA | NASTRES | QQYHRLPLS | GP_Gen | -0.04 / 0.11 / 0.21 / -0.03 / -0.29 / 0.36 |
| 27 | KSSQSVLYESRNKNSVA | WASTRES | QQYHRWPLS | Ctrl | nd / nd / nd / nd / nd / nd; nd / nd / 3.33 / nd / 3.36 / nd; nd / nd / 3.17 / nd / nd / nd; nd / 2.54 / nd / nd / 2.87 / 2.93; 2.63 / 1.39 / 2.12 / nd / 2.43 / 1.92 |
| 28 | KLVNSELYESRQKNSVA | QASQREM | QQYHRLPLS | GP_Gibbs | 0.37 / -0.14 / 0.07 / -0.10 / 0.06 / 0.09 |
| 29 | KSSQSVLPESRNKNSVA | DASTRES | QQYHRLPLS | GP_HC | 0.10 / -0.20 / -0.19 / -0.21 / -0.38 / 0.06 |
| 30 | QLQFLDVQYGVNEQAIA | EENQRMQ | QHYFRLPLS | En_Gibbs | 1.37 / 0.95 / 1.57 / 2.68 / 2.10 / 2.19 |
| 31 | KFYQSVLYESRNKNSVA | NASQRES | QQYHRLPLS | GP_Gen | -0.17 / -0.09 / -0.20 / -0.07 / -0.28 / 0.18 |
| 32 | KQQISVDQESRQKNSVA | NASTREE | QQYHRLPLS | GP_Gibbs | 0.06 / -0.25 / -0.30 / -0.19 / -0.22 / 0.14 |
| 33 | KISQMVTYETTWHNAIA | QTSEREE | QQYHRLPLS | En_HC | 1.66 / 1.27 / 1.66 / 2.27 / 1.19 / 1.20 |
| 34 | KVSQSWLYESRNKNNVA | EASTRES | QQYHRLPLS | GP_Gen | 0.97 / 0.40 / -0.07 / 0.16 / 0.12 / 0.76 |
| 35 | TIGQSVHETSKIKNSVA | HASTRED | QQYDRLPLS | En_HC | 0.45 / -0.01 / 0.13 / -0.36 / 0.11 / 0.11 |
| 36 | KITQLVMETSKNRNNVA | EVSTVPV | QQYHRLPLS | En_HC | 2.05 / 2.70 / 2.47 / 2.27 / nd / nd |

The parent sequence was in this pool as ten entries: three were never detected, three once, and four in most replicates, with averages from 0.34 to 2.37.
Values of this round are not directly comparable with the first-round values of the same sequences.
The authors' rule: three or more of the six replicates give a measured affinity, fewer mean a poor binder.
Some sequences occur more than once in the pool; their replicates are listed entry by entry, parted by semicolons.

Values reported by Li et al. 2023, doi:10.1038/s41467-023-39022-2 (FLAb copy).